Assay outcomes (PubChem)
Rows were chosen to be rich in hits. Some 2.5% of all compounds tested hit in one or more screens of this group.
ClpP mod: qHTS Assay for Activators of ClpP. Potency, µM (highest dose often 57.5 µM). ATP-dependent Clp protease proteolytic subunit (Bacillus subtilis (strain 168)), P80244. purified B. subtilis ClpP, FRET peptide cleavage, 20 min. 1.9% of 340,000 active; active = well fitted falling curve with a large enough effect; inconclusive = small, poorly fitted or top-dose-only effect; inactive = no such curve, though single readings can be large or run the other way; note: the source files actives as falling curves though it sought activators and does not explain the sign; nearly all actives have a fitted effect of over 65% in size
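Purified B. subtilis ClpP, 10 microg/mL final in Tris/HCl pH8 with KCl, BSA, glycerol and Tween-20, cleaved an Abz/nitrotyrosine-quenched decapeptide. Fluorescence (ex 320, em 430) was read at 0 and 20 min at room temperature. Delta was normalized to 5.8 microM ADEP and DMSO/no-enzyme controls.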
TrxR1 inh: rat TrxR1 inhibition; O89049; Potency, µM (highest dose often 114 µM), most hits filed as inhibitors; recombinant rTrxR1, NADPH fluorescence consumption, selenite substrate; 1% of 390,000 active; note: nearly all actives have a fitted effect of over 65% in size
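Rat TrxR1 (90 nM in the dispensed reagent) was pre-reduced with 400 uM NADPH for 5 min at room temperature, then incubated with compound for 15 min. After 400 uM selenite was added, NADPH fluorescence (Ex 340/Em 450 nm) was followed for 8 min.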
TrxR1 substrate: rat thioredoxin reductase 1 substrate activity. Potency, µM (series often up to 114 µM). 0.01% of 390,000 active. purified TrxR1 substrate turnover, NADPH consumption readout. AID 588456; note: nearly all actives have a fitted effect of over 50% in size
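Rat TrxR1, dispensed at 90 nM, was prereduced with 400 uM NADPH (final) for 5 min at ~22 deg C, then incubated with compound 15 min before 400 uM selenite. A first-read NADPH fluorescence drop versus no-compound background flagged substrates.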
Anesthetic bind: candidate novel general anesthetic via apoferritin binding; apoferritin/1-aminoanthracene competitive binding, fluorescence; Potency, µM (titrated, usually from 77.5 µM), usual class: inhibitors; 0.074% of 350,000 active; AID 485281; note: nearly all actives have a fitted effect of over 20% in size
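Read-out: endpoint 1-AMA fluorescence, excitation 380 nm and emission 535 nm, after compounds sit 10 min at room temperature with 10 uM horse-spleen apoferritin in 50% saturated 1-AMA/PBS. Values come from four-parameter Hill fits.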
miR-21 reporter: raises the signal of a miR-21 reporter. Potency, µM (highest dose often 38.3 µM). 340,000 tested, under 10 active. HeLa miR-21 FLuc reporter, luciferase, 48 h; active = well fitted rising curve with a large enough effect; inconclusive = small, poorly fitted or top-dose-only effect; inactive = no such curve, though single readings can be large or run the other way;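 further: miR-21 action dims this reporter so a rising signal means less miR-21 action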
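HeLa cells stably expressing CMV-driven firefly luciferase with a downstream miR-21 binding sequence, endogenously expressing miR-21, were treated with titrations (up to about 40uM final) for 48 hours at 37 degree Celsius. Luciferase luminescence was read after lysis.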
Large screens that a line does not name were inactive. Unless noted, calls come from the whole dose curve; as a rule, active = well fitted curve in the direction sought with a large enough effect; inconclusive = small, poorly fitted or top-dose-only effect, or another doubt; inactive = no such curve, though single readings can be large; an effect the other way counts as inactive or inconclusive.

Amino acid sequences for entries named in this document (tags omitted).
ATP-dependent Clp protease proteolytic subunit (Bacillus subtilis (strain 168)), P80244, UniProt P80244, whole entry, looked up: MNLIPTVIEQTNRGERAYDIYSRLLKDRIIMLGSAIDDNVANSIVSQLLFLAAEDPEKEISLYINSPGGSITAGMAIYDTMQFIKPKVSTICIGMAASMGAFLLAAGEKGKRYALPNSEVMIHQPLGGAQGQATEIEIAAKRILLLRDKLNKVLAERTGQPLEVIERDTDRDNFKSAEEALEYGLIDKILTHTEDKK

CC(=O)Nc1nc2n(n1)C(c1ccccc1)C=C(c1ccccc1)N2 (stereo not drawn)	ClpP mod 28µM, TrxR1 inh 40µM
CC(=O)Nc1nc2n(n1)C(c1ccc(F)cc1)C=C(c1ccccc1)N2 (stereo not drawn)	ClpP mod inconclusive, TrxR1 inh inconclusive
C1=C(c2ccccc2)Nc2ncnn2C1c1ccccc1 (stereo not drawn)	TrxR1 inh 32µM (no result: Anesthetic bind, miR-21 reporter)
O=C1CCC(=O)N1c1nc2n(n1)C(c1ccccc1)C=C(c1ccc(Br)cc1)N2 (stereo not drawn)	TrxR1 inh 71µM
Cc1cccc(C(=O)NCC(c2ccc3c(c2)OCO3)N2CCOCC2)c1 (stereo not drawn)	none
Cc1nn(C)c(C)c1S(=O)(=O)N(CC(=O)N1CCN(c2ccccc2)CC1)c1ccc(C(C)C)cc1	none
CS(=O)(=O)Nc1nc2n(n1)C(c1ccccc1)C=C(c1ccc(Br)cc1)N2 (stereo not drawn)	ClpP mod 8.9µM, TrxR1 inh inconclusive
Cc1ccc(C2C=C(c3ccccc3OC(F)F)Nc3ncnn32)cc1 (stereo not drawn)	ClpP mod 22µM
Cc1ccc(C2C=C(c3ccccc3)Nc3nc(NS(=O)(=O)c4ccc(C)cc4)nn32)cc1 (stereo not drawn)	none
Cc1sc2ccccc2[n+]1CCC[n+]1c(C)sc2ccccc21	none (no result: Anesthetic bind, miR-21 reporter)
COc1ccccc1NC(=O)CN1C(=O)C2(SCC(=O)N2c2ccc(C)c(C)c2)c2ccccc21 (stereo not drawn)	miR-21 reporter inconclusive
CC(=O)N1CN(Cc2ccccn2)Cc2c1sc1c2CCCC1	TrxR1 inh 50µM
CC(=O)N1CN(CCCn2ccnc2)Cc2c1sc1c2CCCC1	none
COc1cc(CN2CCN(CCc3ccccc3)C(CCO)C2)cc(OC)c1 (stereo not drawn)	ClpP mod 32µM
COc1cc(CN2CCN(CCCc3ccccc3)CC2CCO)cc(OC)c1 (stereo not drawn)	none (no result: ClpP mod)
O=S(=O)(NCC(c1cccs1)S(=O)(=O)c1ccccc1)c1ccccc1 (stereo not drawn)	TrxR1 inh 0.56µM
O=S(=O)(NCC(c1ccco1)S(=O)(=O)c1cccs1)c1ccccc1 (stereo not drawn)	TrxR1 inh 16µM
O=S(=O)(NCC(c1ccco1)S(=O)(=O)c1cccs1)c1ccc(Cl)cc1 (stereo not drawn)	TrxR1 inh 0.63µM
O=S(=O)(NCC(c1ccco1)S(=O)(=O)c1cccs1)c1ccc(F)c(C(F)(F)F)c1 (stereo not drawn)	TrxR1 inh 0.45µM
COc1ccc(S(=O)(=O)NCC(c2ccco2)S(=O)(=O)c2cccs2)cc1OC (stereo not drawn)	TrxR1 inh inconclusive
COc1ccc(NS(=O)(=O)c2ccc3c(c2)CC(C)N3C(C)=O)c(OC)c1 (stereo not drawn)	none
O=C1/C(=C/c2ccc(O)c(O)c2)Oc2ccccc21	none (no result: ClpP mod, TrxR1 inh, TrxR1 substrate, miR-21 reporter)
CC(C)(C)c1ccc(Cn2cnc3c(cnn3C(C)(C)C)c2=O)cc1	none (no result: ClpP mod, Anesthetic bind, miR-21 reporter)
Cn1c(=O)c2sccc2n2c(CCC(=O)Nc3ccc(F)cc3)nnc12	none
O=C(CSc1nc2c([nH]c3ccccc32)c(=O)n1-c1ccc(F)cc1)Nc1ccc2c(c1)OCCO2	ClpP mod 22µM
Cc1cc(NC(=O)CSc2nc3c([nH]c4ccccc43)c(=O)n2-c2ccccc2)no1	ClpP mod inconclusive
O=C(CSc1nc2c([nH]c3ccccc32)c(=O)n1-c1ccc(F)cc1)Nc1ccc2c(c1)OCO2	ClpP mod inconclusive, TrxR1 inh inconclusive
O=C(CSc1nc2c([nH]c3ccccc32)c(=O)n1-c1ccccc1)N1CCc2ccccc21	ClpP mod 28µM
Cc1cc(NC(=O)CSc2nc3c([nH]c4ccccc43)c(=O)n2-c2cccc(C(F)(F)F)c2)no1	ClpP mod 28µM
Cc1ccc(-n2c(SCC(=O)NCc3ccc(F)cc3)nc3c([nH]c4ccccc43)c2=O)cc1	ClpP mod 32µM
CCOc1cc(C(=O)Nc2ccc3oc(-c4ccc(F)cc4Cl)nc3c2)cc(OCC)c1OCC	ClpP mod inconclusive
CCCn1c2ccccc2c2cnn(CC(=O)N(Cc3ccccc3)C(C)C)c(=O)c21	ClpP mod inconclusive
Nc1nnc(SCc2ccccc2Cl)s1	Anesthetic bind 11µM
C[N+]1(CC(=O)c2ccc(-c3ccccc3)cc2)CCOCC1	none (no result: Anesthetic bind, miR-21 reporter)
Cc1cccn2c(=O)c3cc(C(=O)NCCCN4CCCC4=O)n(C)c3nc12	ClpP mod 16µM
Cc1cccn2c(=O)c3cc(C(=O)N(C)C)n(C)c3nc12	ClpP mod 16µM
CC(C)(C)n1ncc2c(=O)n(Cc3ccccc3CS(=O)(=O)c3ccccc3)cnc21	none (no result: ClpP mod, Anesthetic bind, miR-21 reporter)
O=C1C(C2=C(O)c3ccccc3C2=O)=Nc2ccccc21	TrxR1 inh 14µM, TrxR1 substrate 35µM
CCN1CCc2nc(N)oc2CC1	TrxR1 inh 22µM (no result: Anesthetic bind, miR-21 reporter)
Cc1ccc2cc(C(c3nnnn3C3CCCC3)N(Cc3ccccc3)Cc3ccco3)c(=O)[nH]c2c1 (stereo not drawn)	ClpP mod 22µM
Cc1cc2cc(C(c3nnnn3C3CCCC3)N(Cc3cccnc3)Cc3ccco3)c(=O)[nH]c2cc1C (stereo not drawn)	ClpP mod inconclusive, TrxR1 inh inconclusive
COC(=O)COc1ccc(C2Nc3c(Cl)ccc(C(=O)O)c3C3C=CCC32)cc1 (stereo not drawn)	TrxR1 inh 13µM (no result: ClpP mod)
Cn1nc(-c2ccccc2F)c2cc(C(=O)N3CCN(c4ccccc4F)CC3)sc21	miR-21 reporter inconclusive
COc1cc(-c2nnc(SCC3(c4ccc(Br)cc4)OCCO3)o2)cc(OC)c1OC	ClpP mod 28µM
COc1cc(-c2nnc(-c3ccccc3)o2)cc(OC)c1OC	ClpP mod inconclusive
COc1cc(-c2n[nH]c(=O)o2)cc(OC)c1OC	ClpP mod 16µM
COc1cc(-c2nnc(SCC(=O)N3CCOCC3)o2)cc(OC)c1OC	none
COc1cc(-c2nnc(SCC(=O)/C(C#N)=C(\C)N)o2)cc(OC)c1OC	ClpP mod 14µM
COc1cc(-c2nnc(-c3cc(OC)c(OC)c(OC)c3)o2)cc(OC)c1OC	ClpP mod 25µM
CCc1ccccc1OCCSc1nnc(-c2cc(OC)c(OC)c(OC)c2)o1	ClpP mod 25µM
O=C1CCCCCC1C1(O)C(=O)Nc2ccccc21 (stereo not drawn)	ClpP mod 11µM
COc1ccc2c(c1)CC(C1(O)C(=O)Nc3ccccc31)C2=O (stereo not drawn)	none
Cn1c2ccccc2c2c(C(=O)NCCCN3CCCC3=O)cn(C3CCCCC3)c(=O)c21	ClpP mod 14µM
